Data on 1 compound can be found in patent US20130116263A1, “PAK INHIBITORS FOR THE TREATMENT OF CELL PROLIFERATIVE DISORDERS” (AFRAXIS, INC., priority 2011, published 2013).

Chains of the proteins cited; added tags and fusions are not shown. Residues count along the entry.
UniProt Q13153, whole entry: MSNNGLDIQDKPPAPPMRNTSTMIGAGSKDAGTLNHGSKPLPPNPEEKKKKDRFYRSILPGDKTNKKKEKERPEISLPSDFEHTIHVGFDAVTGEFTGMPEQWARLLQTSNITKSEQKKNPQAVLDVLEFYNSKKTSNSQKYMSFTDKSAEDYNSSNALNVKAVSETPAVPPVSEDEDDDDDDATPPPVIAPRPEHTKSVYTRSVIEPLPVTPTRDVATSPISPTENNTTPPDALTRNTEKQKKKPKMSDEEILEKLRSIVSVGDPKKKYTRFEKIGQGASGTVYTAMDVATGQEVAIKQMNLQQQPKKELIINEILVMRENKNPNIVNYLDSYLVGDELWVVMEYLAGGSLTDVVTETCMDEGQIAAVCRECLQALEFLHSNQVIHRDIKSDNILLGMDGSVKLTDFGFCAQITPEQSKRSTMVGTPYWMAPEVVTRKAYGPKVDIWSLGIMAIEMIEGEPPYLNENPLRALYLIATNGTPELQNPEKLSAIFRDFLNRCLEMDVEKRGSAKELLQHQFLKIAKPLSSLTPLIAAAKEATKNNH
UniProt O75914, 1-544 isoform 2: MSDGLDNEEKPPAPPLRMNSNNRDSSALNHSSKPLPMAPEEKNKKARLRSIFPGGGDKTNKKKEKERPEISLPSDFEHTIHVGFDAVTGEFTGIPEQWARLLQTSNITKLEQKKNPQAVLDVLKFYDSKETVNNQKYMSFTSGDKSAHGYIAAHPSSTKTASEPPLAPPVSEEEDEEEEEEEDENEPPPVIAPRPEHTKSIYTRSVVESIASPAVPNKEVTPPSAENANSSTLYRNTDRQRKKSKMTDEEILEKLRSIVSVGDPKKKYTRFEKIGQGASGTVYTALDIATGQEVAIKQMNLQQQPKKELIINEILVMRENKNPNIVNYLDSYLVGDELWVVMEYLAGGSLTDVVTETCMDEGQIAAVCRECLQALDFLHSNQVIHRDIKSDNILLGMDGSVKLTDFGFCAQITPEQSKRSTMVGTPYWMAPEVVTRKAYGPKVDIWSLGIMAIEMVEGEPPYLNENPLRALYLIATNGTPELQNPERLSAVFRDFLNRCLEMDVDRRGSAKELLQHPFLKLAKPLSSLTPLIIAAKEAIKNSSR
UniProt Q13177, whole entry: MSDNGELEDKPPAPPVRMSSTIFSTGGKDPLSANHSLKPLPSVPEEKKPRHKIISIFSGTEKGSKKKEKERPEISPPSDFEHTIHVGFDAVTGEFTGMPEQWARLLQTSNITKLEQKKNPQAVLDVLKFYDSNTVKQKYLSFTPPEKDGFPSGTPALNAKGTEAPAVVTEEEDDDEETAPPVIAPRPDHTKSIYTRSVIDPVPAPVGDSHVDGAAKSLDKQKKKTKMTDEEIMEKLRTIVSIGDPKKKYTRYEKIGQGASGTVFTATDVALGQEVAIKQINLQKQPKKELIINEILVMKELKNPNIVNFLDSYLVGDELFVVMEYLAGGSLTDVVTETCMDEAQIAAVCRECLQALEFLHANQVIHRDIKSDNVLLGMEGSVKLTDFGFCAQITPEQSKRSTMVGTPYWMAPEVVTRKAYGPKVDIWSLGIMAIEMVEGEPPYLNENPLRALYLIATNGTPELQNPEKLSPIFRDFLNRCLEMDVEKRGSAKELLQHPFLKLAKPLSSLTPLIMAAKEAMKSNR
UniProt O96013, whole entry: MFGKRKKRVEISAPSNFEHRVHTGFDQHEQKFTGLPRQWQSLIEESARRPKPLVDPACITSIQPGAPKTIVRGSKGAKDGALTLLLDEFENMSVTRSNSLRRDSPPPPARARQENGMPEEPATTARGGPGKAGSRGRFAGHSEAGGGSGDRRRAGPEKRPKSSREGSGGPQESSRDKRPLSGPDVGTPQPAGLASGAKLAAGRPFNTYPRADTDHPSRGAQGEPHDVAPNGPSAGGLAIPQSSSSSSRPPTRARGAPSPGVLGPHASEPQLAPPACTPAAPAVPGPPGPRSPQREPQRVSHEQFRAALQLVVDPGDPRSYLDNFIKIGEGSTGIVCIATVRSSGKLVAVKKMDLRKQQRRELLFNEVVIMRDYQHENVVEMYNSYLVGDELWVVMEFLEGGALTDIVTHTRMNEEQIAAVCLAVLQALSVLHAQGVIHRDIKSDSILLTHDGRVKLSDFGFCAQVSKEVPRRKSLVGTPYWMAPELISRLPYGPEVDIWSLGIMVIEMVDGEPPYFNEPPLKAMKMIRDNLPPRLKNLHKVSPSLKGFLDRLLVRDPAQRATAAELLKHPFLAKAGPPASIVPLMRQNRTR

In one experiment the target is PAK1 (Homo sapiens, UniProt Q13153). Briefly: In vitro PAK inhibition assay (Z'-LYTE, SelectScreen), PAK1. The format is biochemical. The following applies: read-out: PAK1 IC50.
A further experiment deals with PAK3 (Homo sapiens, UniProt O75914). The experiment is described as follows: In vitro PAK inhibition assay (Z'-LYTE, SelectScreen), PAK3. The following applies: read-out: PAK3 IC50.
The target in another experiment is PAK2 (PAK65) (Homo sapiens, UniProt Q13177). Briefly: In vitro PAK inhibition assay (Z'-LYTE, SelectScreen), PAK2. Format: biochemical. The following applies: read-out: PAK2 IC50.
The next experiment has as its target PAK4 (Homo sapiens, UniProt O96013). Briefly: In vitro PAK inhibition assay (Z'-LYTE, SelectScreen), PAK4. The following applies: read-out: PAK4 IC50.

Some results are limits rather than exact numbers.

`O=c1c(-c2ccc(-c3cccnc3F)cc2Cl)cc2cnc(NC3CCOCC3)nc2n1Cc1ccccc1`: the IC50 was 50 to 500 nM at PAK1, 50 to 500 nM at PAK3, 50 to 500 nM on PAK2 (PAK65) and > 5000 nM on PAK4.

By IC50 is commonly meant the concentration that inhibits the measured activity by half.
